# Measured values published in ChEMBL document CHEMBL1128377, “Novel inhibitors of potassium ion channels on human T lymphocytes” (J Med Chem, 1995).
# Amino acid sequences for entries named in this document (tags omitted).
# UniProt P22001, whole entry: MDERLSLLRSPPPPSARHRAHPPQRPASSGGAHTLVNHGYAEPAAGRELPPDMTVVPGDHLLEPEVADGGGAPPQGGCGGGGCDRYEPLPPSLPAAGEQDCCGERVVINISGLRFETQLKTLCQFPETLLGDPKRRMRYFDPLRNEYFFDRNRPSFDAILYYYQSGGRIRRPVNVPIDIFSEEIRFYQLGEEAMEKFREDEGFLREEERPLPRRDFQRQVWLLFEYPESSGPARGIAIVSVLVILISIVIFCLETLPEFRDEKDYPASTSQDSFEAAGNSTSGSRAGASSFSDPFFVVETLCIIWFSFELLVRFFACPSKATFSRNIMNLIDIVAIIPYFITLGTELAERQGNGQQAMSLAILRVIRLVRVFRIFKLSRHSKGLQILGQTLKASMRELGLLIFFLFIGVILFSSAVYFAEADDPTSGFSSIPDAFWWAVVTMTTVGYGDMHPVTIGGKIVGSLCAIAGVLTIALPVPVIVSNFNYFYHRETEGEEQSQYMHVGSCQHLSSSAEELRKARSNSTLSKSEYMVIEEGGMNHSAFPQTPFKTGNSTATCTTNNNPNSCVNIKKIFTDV
# Molecular target: Potassium voltage-gated channel subfamily A member 3 (Homo sapiens, UniProt P22001)
# Test: Concentration inhibiting [125I]ChTX (charybdotoxin) binding to N-type potassium channel.
row,Structure (SMILES),IC50
1,CCCCC/N=c1\ccn(Cc2ccc(Cl)cc2)c2c(F)cccc12,227 nM
2,CCN(CC)CC/N=c1\ccn(Cc2ccccc2Cl)c2cc(Cl)ccc12,7680 nM
3,CCCCC/N=c1\ccn(Cc2ccc(Cl)cc2)c2ccc(OC)cc12,275 nM
